Screening data as filed in PubChem.
This is a sample that favours compounds with a hit; in the whole collection about 13% have one here.
JMJD2E inh – blocks human JMJD2E demethylase activity | Potency, µM (series often up to 57.1 µM), most hits filed as inhibitors | JMJD2E catalytic domain, FDH-coupled NADH fluorescence (FDH is formaldehyde dehydrogenase) | hit rate 1.6% among 230,000 | B2RXH2; active = well fitted inhibition curve with a large enough effect, not every such curve was filed as active; inconclusive = small, poorly fitted or top-dose-only effect, or another doubt; inactive = no such curve, though single readings can be large or run the other way; also: nearly all actives have a fitted effect of over 50% in size
Sfp PPTase inh – Sfp phosphopantetheinyl transferase inhibition; hit rate 3.5% among 310,000; Q9F4F7; AID 1490; Potency, µM, hits mostly inhibitors; Biochemical Sfp PPTase activity, qHTS;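 also: the enzyme is Sfp with the accession as filed and its product quenches rhodamine fluorescence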
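Fluorescence-quenching assay with 15 nM Sfp, 5 uM rhodamine-CoA and 12.5 uM BHQ-2-labelled ybbR peptide in pH 7.6 Hepes/MgCl2 buffer. Enzyme was pre-incubated with compound for 15 min at room temperature. Rate was taken from the 30-min fluorescence change (525/598 nm).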
miR-21 FLuc – miR-21 reporter, rising signal | HeLa miR-21 FLuc reporter, luciferase, 48 h | Potency, µM (top dose mostly 38.3 µM) | 340,000 tested, under 10 active | AID 2288; active = well fitted rising curve with a large enough effect; inconclusive = small, poorly fitted or top-dose-only effect; inactive = no such curve, though single readings can be large or run the other way;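 note: miR-21 action dims this reporter so a rising signal means less miR-21 action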
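HeLa miR-21-FLuc reporter line, endogenous miR-21; 2000 cells/well in DMEM/10% FBS; compound titration up to ~40uM final, 48 h, 37 degree Celsius; luciferase detection reagent, 15 min lysis, CCD luminescence.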
ALDH1A1 inh – ALDH1A1 (human) enzyme inhibition; Purified ALDH1A1, NADH fluorescence, propionaldehyde substrate; hit rate 7.3% among 220,000; P00352; AID 1030; Potency, µM (highest dose often 75.3 µM), hits mostly inhibitors; active = well fitted inhibition curve with a large enough effect, not every such curve was filed as active; inconclusive = small, poorly fitted or top-dose-only effect, or another doubt; inactive = no such curve, though single readings can be large or run the other way
LMNA splice mod – changes lamin A minigene splicing in HeLa cells; hit rate 0.01% among 200,000; AID 1487; Potency, µM (doses to about 46.1 µM), usual class: inhibitors; HeLa LMNA splicing GFP/RFP minigene ratio, 48 h; active = well fitted inhibition curve with a large enough effect in the signal ratio, with a control signal flat, not every such curve was filed as active; inconclusive = small, poorly fitted or top-dose-only effect, or effect the other way, or a change in a side signal; the % refers to the signal ratio
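S3 HeLa cells stably expressing lamin A-EGFP splicing minigene plus DsRed2, 600 cells/well, 48 h compound exposure at 37C. Laser-scanning cytometry; analysed as GFP (500-530 nm)/RFP (575-640 nm) total intensity ratio; 0.5% DMSO vehicle.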
G9a inh – blocks human histone lysine methyltransferase G9a; Q96KQ7; G9a H3K9 monomethylation, AlphaScreen, 2 h; Potency, µM (series often up to 102 µM), most hits filed as inhibitors; hit rate 8.8% among 350,000; also: nearly all actives have a fitted effect of over 75% in size
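G9a (20 nM) was preincubated 15 min with compound, then reacted 2 h at room temperature with 500 nM biotin-H3K9 peptide and 20 µM SAM. Monomethyl-H3K9 detected by AlphaScreen using anti-H3K9me1 antibody.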
Numbers stand for hits; - = inactive; ? = inconclusive; . = not tested or not shown; [ ] = dose if it differs, or a comment. Unless noted, calls follow the shape of the dose curve; as a rule, active = well fitted curve in the direction sought with a large enough effect; inconclusive = small, poorly fitted or top-dose-only effect, or another doubt; inactive = no such curve, though single readings can be large; an effect the other way counts as inactive or inconclusive.

SMILES	JMJD2E inh	Sfp PPTase inh	miR-21 FLuc	ALDH1A1 inh	LMNA splice mod	G9a inh
Cc1ccc(/C=C/C(=O)N2CC(=O)Nc3ccccc32)o1	?	7.08µM	-	20µM	.	?
Cc1ccc(/C=C/C(=O)N2CCN(S(=O)(=O)c3c(C)c(C)cc(C)c3C)CC2)o1	-	14.1µM	-	14.1µM	-	7.94µM
Cc1ccc(/C=C/C(=O)N2CCN(Cc3ccccc3)CC2)o1	-	-	-	8.91µM	-	3.98µM
Cc1ccc(/C=C/C(=O)N2CCN(S(=O)(=O)c3ccc(C)c(C)c3)CC2)o1	?	17.8µM	-	3.55µM	?	2.82µM
Cc1ccc(C(=O)N2CCN(Cc3ccccc3)CC2)o1	.	-	-	.	.	-
Cn1cccc1C(=O)N1CCC2(CC1)CCN(c1ccccc1)CC2	.	-	.	-	.	-[12.7 µM]
COc1ccc2c(c1)C(=O)N(CCc1ccc(S(=O)(=O)NC(=O)NC3CCCCC3)cc1)C(=O)C2(C)C	7.94µM	-	-	-	?	-[12.7 µM]
CC(C)(C)OC(=O)N1CCC(c2c(C(=O)O)cnn2-c2ccc(F)cc2F)CC1	.	.	-	.	.	-
FC(F)(F)c1ccccc1-c1nc(NCc2cccnc2)c2ccccc2n1	.	-	.	-	-	-[0.501 µM]
CCCN1C(=O)/C(=C\c2nc3ccccc3c(=O)[nH]2)c2ccccc21	-	?	-	4.47µM	-	31.6µM
Cc1ccc(Cn2ccc(NC(=O)c3cc(-c4ccc(Cl)c(Cl)c4)on3)n2)cc1	.	.	-	.	.	-
CCN1CCN(C2=CC3=CC(=C(C#N)C#N)CCC3CC2)CC1 (stereo not given)	?	-	-	-	?	44.7µM
O=C(NCc1n[nH]c(=S)n1-c1ccc(F)cc1)c1ccco1	-	-	-	?	-	22.4µM
O=C(CNC(=O)c1ccc(F)cc1)NCc1ccc(S(=O)(=O)N2CCOCC2)cc1	.	.	.	.	.	-
O=C(NCc1n[nH]c(=S)n1-c1ccccc1)c1ccc(S(=O)(=O)N2CCCCC2)cc1	-	-	-	11.2µM	.	8.91µM
O=C(NCc1n[nH]c(=S)n1-c1ccc(F)cc1)c1ccc(S(=O)(=O)N2CCOCC2)cc1	-	44.7µM	-	?	.	14.1µM
O=C(Cc1ccccc1)NCc1n[nH]c(=S)n1-c1ccc(Br)cc1	-	-	-	-	.	?
O=C(NCc1n[nH]c(=S)n1-c1ccccc1)c1ccc(S(=O)(=O)N2CCOCC2)cc1	-	-	-	17.8µM	-	?
O=C(NCc1ccccc1)c1ccc(S(=O)(=O)N2CCCC2)cc1	-	-	-	?	-	-[12.7 µM]
O=C(NCc1cccs1)c1ccc(S(=O)(=O)N2CCOCC2)cc1	-	-	-	-	.	-
CCOC(=O)C1=C[C@@H](C(=O)OCC)[C@@H]2C3=C(C(=O)C2(C)C)[C@H](c2ccccc2)[C@@H]2C(=O)N(c4ccccc4)C(=O)[C@@H]2[C@@H]3C1	.	-	.	.	.	.
CCOc1ccc(NC(=S)N(CCc2c(C)[nH]c3ccccc23)Cc2cccnc2)cc1	-	-	-	?	?	?
Cc1[nH]c2ccc(F)cc2c1CCN(Cc1cccnc1)C(=S)Nc1ccccc1	-	-	-	-	-[9.22 µM]	56.2µM
Cc1cccc(C)c1NC(=S)N(CCc1ccncc1)C(C)C	-	-	-	-	.	?
CCOc1ccc(NC(=S)N(CCc2ccncc2)C(C)C)cc1	-	50.1µM	-	-	.	?
SMILES	JMJD2E inh	Sfp PPTase inh	miR-21 FLuc	ALDH1A1 inh	LMNA splice mod	G9a inh
COc1ccc(CCNC(=S)Nc2ccc(OC)cc2)cc1	-	-	-	?	?	-
COc1ccc(NC(=S)NCCc2c(C)[nH]c3ccc(OC)cc23)cc1	-	-	-	-	-[9.22 µM]	50.1µM
COc1ccc(NC(=S)N(CCc2c(C)[nH]c3ccc(C)cc23)Cc2cccnc2)cc1	-	-	-	-	?	50.1µM
Cc1[nH]c2ccccc2c1CCN(Cc1cccnc1)C(=S)Nc1cccc(F)c1	-	-	-	-	?	50.1µM
Cc1[nH]c2ccc(F)cc2c1CCN(Cc1ccncc1)C(=S)Nc1ccccc1	-	-	-	-	?	?
CCOc1ccc(NC(=S)N(CCc2c(C)[nH]c3ccc(C)cc23)Cc2ccncc2)cc1	-	-	-	-	?	39.8µM
O=C(CSc1nc(-c2cccc(F)c2)[nH]c1-c1ccccc1)Nc1ccc2c(c1)OCCO2	.	.	?	.	.	-
COCCn1c(Cc2ccccc2)nnc1SCC(=O)Nc1ccccc1	-	-	-	-	-	.
Cc1n[nH]c(=O)c2c(NC(=O)CSc3nnnn3-c3ccc(O)cc3)oc(C)c12	.	.	.	.	.	-[0.501 µM]
COCCn1c(Cc2ccccc2)nnc1SCC(=O)Nc1oc(C)c2c(C)n[nH]c(=O)c12	.	.	.	.	.	14.1µM
COCC(C)n1c(SCC(=O)Nc2oc(C)c3c(C)n[nH]c(=O)c23)nc2ccccc2c1=O (stereo not given)	.	-	-	.	.	.
Cc1n[nH]c(=O)c2c(NC(=O)CSc3nnnn3-c3ccccc3)oc(C)c12	.	.	.	.	.	44.7µM
Cc1n[nH]c(=O)c2c(NC(=O)CSc3nc4ccccc4c(=O)n3C(C)C)oc(C)c12	.	-	-	.	.	56.2µM
CCOc1ccc(NC(=O)CN(C)S(=O)(=O)c2cccc3cccnc23)cc1	.	-	-	.	.	-
COc1cccc2cc(C(=O)NCCC3=CCCCC3)c(=O)oc12	?	-	-	10µM	-	-
Cc1cc(C(=O)NCCC2=CCCCC2)c(C)o1	-	35.5µM	-	11.2µM	-	?
CC(C)C[C@H](N)c1nnc(S(=O)(=O)Cc2ccc(F)cc2)o1	-	14.1µM	?	1.58µM	?	?
CCCCN(C(=O)c1cc(OC)c(OC)c(OC)c1)C1=CC2CCC(C1)N2C (stereo not given)	-	-	-	-	-	56.2µM
COc1cc(C(=O)N(CCc2ccccc2)C2=CC3CCC(C2)N3C)cc(OC)c1OC (stereo not given)	-	-	-	-	-	?
O=C(Nc1ccc(Cl)cc1)c1cc2c(-c3ccccc3)nn(-c3ccccc3)c2s1	.	.	-	.	.	-
c1ccc2[nH]c(CSc3nc4ccccc4s3)nc2c1	-	-	-	-	?	-
Cn1c(CSc2nc3ccccc3s2)n[nH]c1=S	-	-	-	?	-	2.51µM
S=c1[nH]nc(CSc2nc3ccccc3s2)o1	-	-	-	17.8µM	-	1.58µM
CCNc1nnc(CSc2nc3ccccc3s2)s1	-	-	-	?	?	4.47µM
C=CCn1c(=O)/c(=C2/Sc3ccccc3N2CC)s/c1=C1/C(=O)NN=C1C	-	?	-	20µM	.	-[12.7 µM]
C=CCn1c(=O)/c(=C2/SC(C)=C(C)N2CC)s/c1=C1/C(=O)N(CC)C(=S)N1c1ccccc1	-	-	-	-	-	?
CCc1ccccc1NC(=O)Cn1c(SCc2ccc(F)cc2)nc2ccncc21	.	.	-	.	.	-
CN(C)c1ccc(NC(=O)Cn2c(SCc3ccc(F)cc3)nc3ccncc32)cc1	.	.	-	.	.	6.31µM
CC(=O)Sc1nc(-c2ccccc2)[nH]c1S(=O)(=O)c1ccc(C)cc1	10µM	2.51µM	-	-	?	2.24µM
